Reference: PMC7179958, “Prediction of Clinical Transporter‐Mediated Drug–Drug Interactions via Comeasurement of Pitavastatin and Eltrombopag in Human Hepatocyte Models” (CPT: Pharmacometrics & Systems Pharmacology, 2020)

System: human hepatocytes
Assay: Uptake of pitavastatin and eltrombopag in cryopreserved human hepatocytes (oil spin method), comeasurement, micro‐rate constant mechanistic model
Assay type: in vitro ADME
Experimental: Human hepatocytes were obtained from BioIVT (Brussels, Belgium; lot number: LYB; 10 donor LiverPool (8 Caucasians, 1 African American, and 1 Hispanic) and thawed according to supplier guidelines in Leibovitz L15 medium. Hepatocytes were kept on ice prior to use and were used within 3 hours of defrosting.
Hepatocytes (viability 84–87%) were preincubated in Leibovitz L15 medium at 1.5 × 10^6 cells for 15 minutes at 37 °C with either 0.1% DMSO or 45 nmol/mL eltrombopag. Incubations were started by the addition of pitavastatin (0.3–100 nmol/mL, 1 × 10^6 cells, 0.35% DMSO, 30 nmol/mL eltrombopag final), and 100 µL samples taken at 0.25–30 minutes. Cells were separated using an oil spin method similar to the literature. ^11 , ^17 After separation, the tubes were frozen on dry ice and the bottom layer was cut off. Pitavastatin and eltrombopag were extracted in a stop solution prior to ultra‐performance liquid chromatography–high‐resolution mass spectrometry analysis (see the Supplemental Material for full experimental and sample extraction methods).
The bottom layer concentrations of pitavastatin and eltrombopag were converted to a cellular concentration using a cellular volume (V cell) of 3 µL/1 × 10^6 human hepatocytes: ^18 (1) cellnmol/mL=Bottom layer×15.3μL/Vcell/100 where V cell /1 × 10^5 cells was 0.3 µL, and the volume of the bottom layer of cesium chloride was 15 µL. A dilution factor of 100 was used to scale from pmol/mL/1 × 10^5 cells to nmol/mL/1 × 10^6 cells.
The final chosen mechanistic model (model 1 with the comeasurement of pitavastatin and eltrombopag; Table 1 ) was based on the outcome of the structural identifiability analysis and goodness‐of‐fit statistics (Bayesian information criterion, and the weighted Bayesian information criterion, ^21 and the sum of the relative mean square root error (percentage RMSRE); see Supplemental Material ). Model 1 was described using a set of ODEs representing the following: the amount of pitavastatin (X = substrate (S) or pitavastatin (P)) and eltrombopag (X = inhibitor (I) or eltrombopag (E)) in the medium (X 1), the amount bound to transporter (X 2), and the intracellular amount (X 3). Passive rate constants for movement into and out of the cell (k f.X and k bX, respectively) as well as uptake transporter‐mediated rate constants for association to the transporter (k aX) and dissociation (k dX) and translocation (k tX) from the transporter into the medium and cell, respectively. Metabolism of pitavastatin in the cell was through an elimination rate constant (k e). The sets of ODEs for all the models (models 1–4; Table 1 ) tested for structural identifiability and used for parameter estimation are included in the Supplemental Material .
Parameter estimation was conducted within Monolix 2018 R2 (Lixoft, Antony, France) for each concentration and experiment as an individual data set, where to ensure positivity, a log‐normal distribution was assumed for each parameter, with a proportional residual error model for the observations. Because of the large number of parameters to be estimated in the combined pitavastatin and eltrombopag mechanistic model, the initial estimates for pitavastatin and eltrombopag each were obtained for the micro‐rate constant models (no macro‐rate constant estimates could be obtained for eltrombopag alone for transporter‐mediated uptake).
Hepatocyte Incubations. 0.4 mL of hepatocytes was diluted 1:1 with Leibovitz either containing DMSO blank (0.1 % for pitavastatin or 0.25 % for eltrombopag alone) or eltrombopag at 90 nmol/mL and pre-incubated at 1.5x10^6 cells/mL for 15 min at 37 °C in 7 mL glass scintillation vials (PerkinElmer, Vasby, Sweden) in a shaking water bath (Grant Instruments, Cambridge, UK). Pitavastatin was dissolved and serially diluted in DMSO to give 0.12, 0.4, 1.2, 4, 12 and 40 µmol/mL, and then diluted 400-fold into 37 °C Leibovitz L15 medium. […]

## O=C(O)C[C@H](O)C[C@H](O)/C=C/c1c(C2CC2)nc2ccccc2c1-c1ccc(F)cc1 [pitavastatin, pitavastatin calcium]
ID 1, AMT 0.3, TIME 15.33, DVID 1
  DV (pitavastatin uptake into hepatocytes): 0.44
ID 1, AMT 0.3, TIME 15.5, DVID 1
  DV (pitavastatin uptake into hepatocytes): 0.81
ID 1, AMT 0.3, TIME 16, DVID 1
  DV (pitavastatin uptake into hepatocytes): 1.13
ID 1, AMT 0.3, TIME 17, DVID 1
  DV (pitavastatin uptake into hepatocytes): 2.05
ID 1, AMT 0.3, TIME 20, DVID 1
  DV (pitavastatin uptake into hepatocytes): 3.37
ID 1, AMT 0.3, TIME 25, DVID 1
  DV (pitavastatin uptake into hepatocytes): 3.44
ID 1, AMT 0.3, TIME 45, DVID 1
  DV (pitavastatin uptake into hepatocytes): 3.08
ID 2, AMT 0.3, TIME 15.25, DVID 1
  DV (pitavastatin uptake into hepatocytes): 1
ID 2, AMT 0.3, TIME 15.5, DVID 1
  DV (pitavastatin uptake into hepatocytes): 1.65
ID 2, AMT 0.3, TIME 16, DVID 1
  DV (pitavastatin uptake into hepatocytes): 2.77
ID 2, AMT 0.3, TIME 17, DVID 1
  DV (pitavastatin uptake into hepatocytes): 3.74
ID 2, AMT 0.3, TIME 20, DVID 1
  DV (pitavastatin uptake into hepatocytes): 6.25
ID 2, AMT 0.3, TIME 25, DVID 1
  DV (pitavastatin uptake into hepatocytes): 6.32
ID 2, AMT 0.3, TIME 45, DVID 1
  DV (pitavastatin uptake into hepatocytes): 5.75
ID 3, AMT 0.3, TIME 15.25, DVID 1
  DV (pitavastatin uptake into hepatocytes): 0.64
ID 3, AMT 0.3, TIME 15.5, DVID 1
  DV (pitavastatin uptake into hepatocytes): 1.12
ID 3, AMT 0.3, TIME 16, DVID 1
  DV (pitavastatin uptake into hepatocytes): 2.02
ID 3, AMT 0.3, TIME 17, DVID 1
  DV (pitavastatin uptake into hepatocytes): 2.84
ID 3, AMT 0.3, TIME 20, DVID 1
  DV (pitavastatin uptake into hepatocytes): 3.66
ID 3, AMT 0.3, TIME 25, DVID 1
  DV (pitavastatin uptake into hepatocytes): 3.52
ID 3, AMT 0.3, TIME 45, DVID 1
  DV (pitavastatin uptake into hepatocytes): 2.87
ID 4, AMT 1, TIME 15.25, DVID 1
  DV (pitavastatin uptake into hepatocytes): 1.64
ID 4, AMT 1, TIME 15.5, DVID 1
  DV (pitavastatin uptake into hepatocytes): 2.04
ID 4, AMT 1, TIME 16, DVID 1
  DV (pitavastatin uptake into hepatocytes): 3
ID 4, AMT 1, TIME 17, DVID 1
  DV (pitavastatin uptake into hepatocytes): 5.53
ID 4, AMT 1, TIME 20, DVID 1
  DV (pitavastatin uptake into hepatocytes): 8.32
ID 4, AMT 1, TIME 25, DVID 1
  DV (pitavastatin uptake into hepatocytes): 5.65
ID 4, AMT 1, TIME 45, DVID 1
  DV (pitavastatin uptake into hepatocytes): 9.06
ID 5, AMT 1, TIME 15.25, DVID 1
  DV (pitavastatin uptake into hepatocytes): 3.21
ID 5, AMT 1, TIME 15.5, DVID 1
  DV (pitavastatin uptake into hepatocytes): 4.54
ID 5, AMT 1, TIME 16, DVID 1
  DV (pitavastatin uptake into hepatocytes): 7.36
ID 5, AMT 1, TIME 17, DVID 1
  DV (pitavastatin uptake into hepatocytes): 11.12
ID 5, AMT 1, TIME 20, DVID 1
  DV (pitavastatin uptake into hepatocytes): 17.63
ID 5, AMT 1, TIME 25, DVID 1
  DV (pitavastatin uptake into hepatocytes): 18.93
ID 5, AMT 1, TIME 45, DVID 1
  DV (pitavastatin uptake into hepatocytes): 14.63
ID 6, AMT 1, TIME 15.25, DVID 1
  DV (pitavastatin uptake into hepatocytes): 2.1
ID 6, AMT 1, TIME 15.5, DVID 1
  DV (pitavastatin uptake into hepatocytes): 2.85
ID 6, AMT 1, TIME 16, DVID 1
  DV (pitavastatin uptake into hepatocytes): 5.61
ID 6, AMT 1, TIME 17, DVID 1
  DV (pitavastatin uptake into hepatocytes): 8.39
ID 6, AMT 1, TIME 20, DVID 1
  DV (pitavastatin uptake into hepatocytes): 13.16
ID 6, AMT 1, TIME 25, DVID 1
  DV (pitavastatin uptake into hepatocytes): 10.79
ID 6, AMT 1, TIME 45, DVID 1
  DV (pitavastatin uptake into hepatocytes): 8.88
ID 7, AMT 3, TIME 15.25, DVID 1
  DV (pitavastatin uptake into hepatocytes): 3.44
ID 7, AMT 3, TIME 15.5, DVID 1
  DV (pitavastatin uptake into hepatocytes): 5.29
ID 7, AMT 3, TIME 16, DVID 1
  DV (pitavastatin uptake into hepatocytes): 6.84
ID 7, AMT 3, TIME 17, DVID 1
  DV (pitavastatin uptake into hepatocytes): 12.79
ID 7, AMT 3, TIME 20, DVID 1
  DV (pitavastatin uptake into hepatocytes): 20.91
ID 7, AMT 3, TIME 25, DVID 1
  DV (pitavastatin uptake into hepatocytes): 23.83
ID 7, AMT 3, TIME 45, DVID 1
  DV (pitavastatin uptake into hepatocytes): 16.69
ID 8, AMT 3, TIME 15.25, DVID 1
  DV (pitavastatin uptake into hepatocytes): 7.28
ID 8, AMT 3, TIME 15.5, DVID 1
  DV (pitavastatin uptake into hepatocytes): 11.1
ID 8, AMT 3, TIME 16, DVID 1
  DV (pitavastatin uptake into hepatocytes): 18.96
ID 8, AMT 3, TIME 17, DVID 1
  DV (pitavastatin uptake into hepatocytes): 26.06
ID 8, AMT 3, TIME 20, DVID 1
  DV (pitavastatin uptake into hepatocytes): 34.93
ID 8, AMT 3, TIME 25, DVID 1
  DV (pitavastatin uptake into hepatocytes): 41.51
ID 8, AMT 3, TIME 45, DVID 1
  DV (pitavastatin uptake into hepatocytes): 37.21
ID 9, AMT 3, TIME 15.25, DVID 1
  DV (pitavastatin uptake into hepatocytes): 4.57
ID 9, AMT 3, TIME 15.5, DVID 1
  DV (pitavastatin uptake into hepatocytes): 6.22
ID 9, AMT 3, TIME 16, DVID 1
  DV (pitavastatin uptake into hepatocytes): 10.98
ID 9, AMT 3, TIME 17, DVID 1
  DV (pitavastatin uptake into hepatocytes): 14.51
ID 9, AMT 3, TIME 20, DVID 1
  DV (pitavastatin uptake into hepatocytes): 23.79
ID 9, AMT 3, TIME 25, DVID 1
  DV (pitavastatin uptake into hepatocytes): 27.45
ID 9, AMT 3, TIME 45, DVID 1
  DV (pitavastatin uptake into hepatocytes): 24.05
ID 10, AMT 10, TIME 15.25, DVID 1
  DV (pitavastatin uptake into hepatocytes): 10.28
ID 10, AMT 10, TIME 15.5, DVID 1
  DV (pitavastatin uptake into hepatocytes): 13.48
ID 10, AMT 10, TIME 16, DVID 1
  DV (pitavastatin uptake into hepatocytes): 21.07
ID 10, AMT 10, TIME 17, DVID 1
  DV (pitavastatin uptake into hepatocytes): 40.16
ID 10, AMT 10, TIME 20, DVID 1
  DV (pitavastatin uptake into hepatocytes): 41.64
ID 10, AMT 10, TIME 25, DVID 1
  DV (pitavastatin uptake into hepatocytes): 48.12
ID 10, AMT 10, TIME 45, DVID 1
  DV (pitavastatin uptake into hepatocytes): 51.06
ID 11, AMT 10, TIME 15.25, DVID 1
  DV (pitavastatin uptake into hepatocytes): 23.81
ID 11, AMT 10, TIME 15.5, DVID 1
  DV (pitavastatin uptake into hepatocytes): 31.84
ID 11, AMT 10, TIME 16, DVID 1
  DV (pitavastatin uptake into hepatocytes): 50.69
ID 11, AMT 10, TIME 17, DVID 1
  DV (pitavastatin uptake into hepatocytes): 69.05
ID 11, AMT 10, TIME 20, DVID 1
  DV (pitavastatin uptake into hepatocytes): 86.82
